Experimental data from patent US20260384450A1, “MACROCYCLIC AMINOPYRIDINE COMPOUNDS AS EGFR INHIBITORS” (published 2026).

Sequences of proteins named here, by UniProt entry; tags and fusion partners are left off. A change or cut given only in a name is not applied to a line headed by its entry. A line that says so, or that is headed by a name, gives the form on record, which may keep a tag or linker. Residues count along the entry.
UniProt P00533, 25-1210 limits assumed: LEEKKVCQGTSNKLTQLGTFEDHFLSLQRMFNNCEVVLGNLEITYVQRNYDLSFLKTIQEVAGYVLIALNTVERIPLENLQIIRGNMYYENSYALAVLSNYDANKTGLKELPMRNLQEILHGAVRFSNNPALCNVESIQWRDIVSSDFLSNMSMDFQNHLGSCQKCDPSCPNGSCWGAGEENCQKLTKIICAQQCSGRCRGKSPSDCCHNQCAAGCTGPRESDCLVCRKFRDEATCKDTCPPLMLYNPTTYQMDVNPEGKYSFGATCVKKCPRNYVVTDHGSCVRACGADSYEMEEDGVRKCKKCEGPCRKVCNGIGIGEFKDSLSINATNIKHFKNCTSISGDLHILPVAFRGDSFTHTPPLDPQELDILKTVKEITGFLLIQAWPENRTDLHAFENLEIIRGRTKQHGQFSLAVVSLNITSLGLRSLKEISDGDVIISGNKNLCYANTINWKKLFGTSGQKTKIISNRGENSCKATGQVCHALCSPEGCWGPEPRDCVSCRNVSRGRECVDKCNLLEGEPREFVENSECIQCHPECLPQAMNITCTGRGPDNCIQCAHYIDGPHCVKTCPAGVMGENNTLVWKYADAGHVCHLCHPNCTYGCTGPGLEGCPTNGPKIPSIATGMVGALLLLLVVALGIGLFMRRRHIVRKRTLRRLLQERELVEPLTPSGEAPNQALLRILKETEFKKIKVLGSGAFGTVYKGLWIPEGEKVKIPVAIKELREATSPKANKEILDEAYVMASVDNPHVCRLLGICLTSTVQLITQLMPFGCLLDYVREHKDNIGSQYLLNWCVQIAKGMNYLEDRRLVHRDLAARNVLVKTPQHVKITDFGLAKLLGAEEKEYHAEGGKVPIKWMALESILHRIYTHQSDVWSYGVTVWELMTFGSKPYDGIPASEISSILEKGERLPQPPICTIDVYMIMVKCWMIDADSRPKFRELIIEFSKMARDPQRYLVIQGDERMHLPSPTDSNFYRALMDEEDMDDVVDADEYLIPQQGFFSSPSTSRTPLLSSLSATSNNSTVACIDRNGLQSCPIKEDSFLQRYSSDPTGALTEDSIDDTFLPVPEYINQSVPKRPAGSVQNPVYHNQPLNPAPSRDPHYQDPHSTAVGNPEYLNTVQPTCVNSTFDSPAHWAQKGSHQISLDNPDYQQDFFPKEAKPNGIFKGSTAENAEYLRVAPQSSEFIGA
UniProt P00533, 25-1210 C797S/L858R limits assumed: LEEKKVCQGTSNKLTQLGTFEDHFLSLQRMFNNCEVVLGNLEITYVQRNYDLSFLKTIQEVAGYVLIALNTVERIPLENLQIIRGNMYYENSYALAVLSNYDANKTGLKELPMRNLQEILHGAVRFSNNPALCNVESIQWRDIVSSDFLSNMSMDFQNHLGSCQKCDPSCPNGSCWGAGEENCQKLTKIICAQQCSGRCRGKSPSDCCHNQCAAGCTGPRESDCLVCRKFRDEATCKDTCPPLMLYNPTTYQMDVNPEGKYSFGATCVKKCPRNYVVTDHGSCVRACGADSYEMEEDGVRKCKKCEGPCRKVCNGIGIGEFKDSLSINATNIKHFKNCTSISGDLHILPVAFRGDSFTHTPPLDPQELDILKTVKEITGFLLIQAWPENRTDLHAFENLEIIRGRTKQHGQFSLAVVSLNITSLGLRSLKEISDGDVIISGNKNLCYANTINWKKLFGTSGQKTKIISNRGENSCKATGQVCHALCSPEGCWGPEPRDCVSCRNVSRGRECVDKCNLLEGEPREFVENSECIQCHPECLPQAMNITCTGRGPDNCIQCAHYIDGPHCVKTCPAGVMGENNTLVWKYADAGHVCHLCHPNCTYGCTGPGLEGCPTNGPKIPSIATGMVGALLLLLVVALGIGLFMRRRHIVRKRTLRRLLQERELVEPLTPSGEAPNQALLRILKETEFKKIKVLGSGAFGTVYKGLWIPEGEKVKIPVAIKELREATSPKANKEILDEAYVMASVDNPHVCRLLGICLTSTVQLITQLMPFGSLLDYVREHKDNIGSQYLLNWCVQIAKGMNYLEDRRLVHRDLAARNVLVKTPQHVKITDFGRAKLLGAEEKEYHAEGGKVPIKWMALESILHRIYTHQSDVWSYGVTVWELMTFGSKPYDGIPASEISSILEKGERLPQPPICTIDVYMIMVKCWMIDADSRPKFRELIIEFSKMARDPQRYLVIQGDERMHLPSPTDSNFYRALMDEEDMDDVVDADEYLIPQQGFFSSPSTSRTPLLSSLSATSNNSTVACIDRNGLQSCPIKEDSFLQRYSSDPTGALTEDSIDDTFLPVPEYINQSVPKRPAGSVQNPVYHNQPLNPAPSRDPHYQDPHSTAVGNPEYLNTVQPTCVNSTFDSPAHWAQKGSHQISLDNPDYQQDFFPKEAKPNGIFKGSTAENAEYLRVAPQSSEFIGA
UniProt P00533, 25-1210 T790M/C797S/L858R limits assumed: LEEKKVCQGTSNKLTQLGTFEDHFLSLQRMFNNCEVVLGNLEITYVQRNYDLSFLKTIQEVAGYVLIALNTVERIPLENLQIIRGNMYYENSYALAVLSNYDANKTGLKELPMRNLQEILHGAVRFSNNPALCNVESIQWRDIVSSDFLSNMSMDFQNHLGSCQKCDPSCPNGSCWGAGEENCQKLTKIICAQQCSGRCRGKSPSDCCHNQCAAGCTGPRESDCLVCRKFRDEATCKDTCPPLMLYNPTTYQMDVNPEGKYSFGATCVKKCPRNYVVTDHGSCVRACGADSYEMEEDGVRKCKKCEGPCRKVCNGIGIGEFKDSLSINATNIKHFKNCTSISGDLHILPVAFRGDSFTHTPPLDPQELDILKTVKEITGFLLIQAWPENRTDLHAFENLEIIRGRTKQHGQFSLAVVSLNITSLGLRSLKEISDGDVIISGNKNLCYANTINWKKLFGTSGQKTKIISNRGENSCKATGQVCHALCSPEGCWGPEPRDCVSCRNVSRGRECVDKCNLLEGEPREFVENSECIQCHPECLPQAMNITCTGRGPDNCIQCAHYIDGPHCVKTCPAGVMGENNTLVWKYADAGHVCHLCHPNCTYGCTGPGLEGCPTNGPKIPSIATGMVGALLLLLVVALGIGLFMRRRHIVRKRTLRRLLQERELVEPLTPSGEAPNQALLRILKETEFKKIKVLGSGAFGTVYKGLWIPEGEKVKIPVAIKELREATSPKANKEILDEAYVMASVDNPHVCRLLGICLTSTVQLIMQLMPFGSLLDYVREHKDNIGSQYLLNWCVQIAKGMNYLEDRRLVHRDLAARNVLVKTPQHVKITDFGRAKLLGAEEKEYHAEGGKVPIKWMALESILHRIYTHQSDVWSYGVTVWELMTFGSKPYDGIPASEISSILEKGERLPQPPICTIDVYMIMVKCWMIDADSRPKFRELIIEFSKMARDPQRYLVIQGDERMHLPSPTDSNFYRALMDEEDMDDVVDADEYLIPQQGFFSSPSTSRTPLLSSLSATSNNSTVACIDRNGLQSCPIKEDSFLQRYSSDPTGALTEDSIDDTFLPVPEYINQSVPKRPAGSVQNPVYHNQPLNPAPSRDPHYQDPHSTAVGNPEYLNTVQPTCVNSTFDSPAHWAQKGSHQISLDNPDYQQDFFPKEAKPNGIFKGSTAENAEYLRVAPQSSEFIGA
UniProt P00533, with tags, fused parts or gaps DEL746-750/C797S limits assumed: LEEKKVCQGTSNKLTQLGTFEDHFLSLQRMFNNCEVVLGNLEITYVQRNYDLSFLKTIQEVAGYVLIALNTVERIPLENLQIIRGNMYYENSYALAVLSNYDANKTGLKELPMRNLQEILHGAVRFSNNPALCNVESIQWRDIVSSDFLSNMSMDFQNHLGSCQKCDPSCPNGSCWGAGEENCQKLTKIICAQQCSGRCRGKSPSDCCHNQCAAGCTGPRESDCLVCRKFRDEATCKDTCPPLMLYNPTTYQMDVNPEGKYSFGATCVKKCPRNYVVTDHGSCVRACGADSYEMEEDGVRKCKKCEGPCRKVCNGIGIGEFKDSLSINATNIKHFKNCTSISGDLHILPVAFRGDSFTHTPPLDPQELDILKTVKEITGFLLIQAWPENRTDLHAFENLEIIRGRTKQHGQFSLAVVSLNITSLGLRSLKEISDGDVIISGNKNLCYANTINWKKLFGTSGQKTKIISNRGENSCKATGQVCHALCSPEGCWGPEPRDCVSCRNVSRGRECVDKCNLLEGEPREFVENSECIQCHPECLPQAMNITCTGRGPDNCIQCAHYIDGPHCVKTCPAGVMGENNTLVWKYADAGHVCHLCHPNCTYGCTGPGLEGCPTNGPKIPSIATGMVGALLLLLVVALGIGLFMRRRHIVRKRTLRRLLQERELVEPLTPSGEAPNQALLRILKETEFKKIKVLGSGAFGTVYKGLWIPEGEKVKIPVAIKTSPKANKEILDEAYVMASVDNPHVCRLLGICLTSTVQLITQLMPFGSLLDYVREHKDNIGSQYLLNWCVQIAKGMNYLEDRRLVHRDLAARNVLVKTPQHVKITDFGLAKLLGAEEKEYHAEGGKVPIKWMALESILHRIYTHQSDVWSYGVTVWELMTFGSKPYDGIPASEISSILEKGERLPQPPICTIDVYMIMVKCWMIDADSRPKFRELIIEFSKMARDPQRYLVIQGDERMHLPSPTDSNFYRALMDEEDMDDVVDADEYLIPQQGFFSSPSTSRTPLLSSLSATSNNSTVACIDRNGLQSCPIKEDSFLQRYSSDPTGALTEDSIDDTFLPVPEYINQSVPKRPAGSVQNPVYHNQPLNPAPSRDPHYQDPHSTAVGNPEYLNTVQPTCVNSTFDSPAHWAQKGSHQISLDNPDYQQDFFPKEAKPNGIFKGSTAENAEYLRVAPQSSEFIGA
UniProt P00533, with tags, fused parts or gaps DEL746-750/T790M/C797S limits assumed: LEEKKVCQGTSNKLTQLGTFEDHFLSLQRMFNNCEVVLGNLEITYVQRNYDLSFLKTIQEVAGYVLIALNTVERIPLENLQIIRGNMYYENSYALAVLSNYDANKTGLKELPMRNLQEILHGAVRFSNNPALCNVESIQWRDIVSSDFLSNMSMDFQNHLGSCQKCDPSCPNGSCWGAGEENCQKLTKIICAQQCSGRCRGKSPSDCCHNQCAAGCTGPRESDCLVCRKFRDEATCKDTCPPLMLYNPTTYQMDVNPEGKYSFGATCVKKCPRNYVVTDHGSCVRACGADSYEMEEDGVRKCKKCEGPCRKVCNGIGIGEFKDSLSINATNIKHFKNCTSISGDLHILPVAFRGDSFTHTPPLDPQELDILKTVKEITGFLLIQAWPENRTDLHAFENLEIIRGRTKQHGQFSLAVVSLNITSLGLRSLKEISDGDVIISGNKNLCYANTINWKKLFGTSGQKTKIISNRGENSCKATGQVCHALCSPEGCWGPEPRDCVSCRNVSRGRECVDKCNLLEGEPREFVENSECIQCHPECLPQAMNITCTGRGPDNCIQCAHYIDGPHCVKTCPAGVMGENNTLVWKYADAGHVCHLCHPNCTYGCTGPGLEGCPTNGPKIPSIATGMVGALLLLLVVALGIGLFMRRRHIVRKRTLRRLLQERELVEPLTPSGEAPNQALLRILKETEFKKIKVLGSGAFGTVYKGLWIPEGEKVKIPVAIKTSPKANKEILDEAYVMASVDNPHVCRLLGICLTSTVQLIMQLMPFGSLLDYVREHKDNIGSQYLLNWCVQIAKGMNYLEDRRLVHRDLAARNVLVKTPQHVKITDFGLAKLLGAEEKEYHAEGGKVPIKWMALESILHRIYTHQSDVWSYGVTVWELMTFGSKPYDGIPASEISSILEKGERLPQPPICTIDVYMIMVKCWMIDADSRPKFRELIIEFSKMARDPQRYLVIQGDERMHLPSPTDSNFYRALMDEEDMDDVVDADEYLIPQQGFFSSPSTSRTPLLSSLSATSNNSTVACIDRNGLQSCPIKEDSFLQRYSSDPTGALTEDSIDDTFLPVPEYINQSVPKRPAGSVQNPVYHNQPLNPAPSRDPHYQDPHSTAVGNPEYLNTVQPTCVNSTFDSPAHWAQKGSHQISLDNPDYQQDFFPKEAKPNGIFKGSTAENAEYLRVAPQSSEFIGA

Legend:
[1] = molecular target: EGFR LRTMCS (L858R/T790M/C797S) (Homo sapiens, UniProt P00533, C797S/L858R/T790M); experiment: Biochemical EGFR kinase assay (Lance Ultra TR-FRET), triple mutant L858R/T790M/C797S
Method: (§1) Biochemical EGFR kinase assays were conducted using Lance Ultra time-resolved fluorescence resonance energy transfer (TR-FRET) technology from Perkin-Elmer. Compounds of the invention were initially diluted to 20 mM in 100% DMSO for storage and made into kinase buffer solution to create a compound concentration ranging from 0.003 μM and 10 μM.
(§2) Briefly, each EGFR enzyme wildtype (EGFR WT), double mutant [del19/C797S (EGFR D19CS) and L858R/C797S (EGFR LRCS)], triple mutant [del19/T790M/C797S (EGFR D19TMCS) and L858R/T790M/C797S (EGFR LRTMCS)], serial diluted EGFR inhibitors, substrate of ULight-poly-GT peptide (PerkinElmer; TRF0100-M) and different concentrations of ATP (Km and 100 μM final assay concentration) were mixed in kinase assay buffer (50 mM HEPES pH 7.4, 10 mM MgCl2, 1 mM EGTA, 2 mM DTT and 0.01% Tween-20) and were added to a 384-well plate (Optiplate™ 384, white, PerkinElmer; 6007290).
(§3) Each kinase reactions were incubated at room temperature for 1 hour and then stopped by the addition of 4 μL of stop solution (10 mM EDTA). The specific Europium-labeled-anti-phosphopeptide antibody (PerkinElmer, AD0069) diluted in LANCE detection buffer was then added to a final concentration of 2 nM. After 60 minutes incubation at room temperature the LANCE signal was measured on an EnVision Multilabel Reader (Perkin-Elmer). Excitation wavelength was set at 320 nm and emission monitored at 615 nm (donor) and 665 nm (acceptor). The IC50 values were determined using GraphPad prism software (GraphPad Software, Inc., San Diego, CA, USA).

EGFR D19CS (del19/C797S) = EGFR D19CS (del19/C797S) (Homo sapiens, UniProt P00533, C797S/DEL746-750); experiment: Biochemical EGFR kinase assay (Lance Ultra TR-FRET), double mutant del19/C797S
Method: as §1, §2, §3

EGFR WT = EGFR WT (Homo sapiens, UniProt P00533); experiment: Biochemical EGFR kinase assay (Lance Ultra TR-FRET), wildtype
Method: as §1, §2, §3

[2] = molecular target: EGFR D19TMCS (del19/T790M/C797S) (Homo sapiens, UniProt P00533, C797S/DEL746-750/T790M); experiment: Biochemical EGFR kinase assay (Lance Ultra TR-FRET), triple mutant del19/T790M/C797S
Method: as §1, §2, §3

EGFR LRCS (L858R/C797S) = EGFR LRCS (L858R/C797S) (Homo sapiens, UniProt P00533, C797S/L858R); experiment: Biochemical EGFR kinase assay (Lance Ultra TR-FRET), double mutant L858R/C797S
Method: as §1, §2, §3

[3] = read-out: EGFR LRTMCS IC50, ATP 1 mM
[4] = read-out: EGFR LRTMCS IC50, ATP Km
[5] = read-out: EGFR D19CS IC50, ATP 1 mM
[6] = read-out: EGFR D19CS IC50, ATP Km
[7] = read-out: EGFR WT IC50, ATP 1 mM
[8] = read-out: EGFR D19TMCS IC50, ATP 1 mM
[9] = read-out: EGFR D19TMCS IC50, ATP Km
[10] = read-out: EGFR LRCS IC50, ATP 1 mM
[11] = read-out: EGFR LRCS IC50, ATP Km

SMILES | IC50 [1, 3] [nM] | IC50 [1, 4] [nM] | IC50 (EGFR D19CS (del19/C797S); [5]) [nM] | IC50 (EGFR D19CS (del19/C797S); [6]) [nM] | IC50 (EGFR WT; [7]) [nM] | IC50 (EGFR WT; read-out: EGFR WT IC50, ATP Km) [nM] | IC50 [2, 8] [nM] | IC50 [2, 9] [nM] | IC50 (EGFR LRCS (L858R/C797S); [10]) [nM] | IC50 (EGFR LRCS (L858R/C797S); [11]) [nM] | IC50 ([1]; read-out: IC50, EGFR LRTMCS, 1 mM, ATP 1 mM, EGFR L858R/T790M/C797S) [nM] | IC50 ([1]; read-out: IC50, EGFR LRTMCS, Km, ATP at Km, EGFR L858R/T790M/C797S) [nM] | IC50 (EGFR D19CS (del19/C797S); read-out: IC50, EGFR-D19CS, 1 mM, ATP 1 mM, EGFR del19/C797S) [nM] | IC50 (EGFR D19CS (del19/C797S); read-out: IC50, EGFR-D19CS, Km, ATP at Km, EGFR del19/C797S) [nM] | IC50 (EGFR WT; read-out: IC50, EGFR WT, 1 mM, ATP 1 mM, EGFR wildtype) [nM] | IC50 (EGFR WT; read-out: IC50, EGFR WT, Km, ATP at Km, EGFR wildtype) [nM] | IC50 ([2]; read-out: IC50, EGFR D19TMCS, Km, ATP at Km, EGFR del19/T790M/C797S) [nM] | IC50 (EGFR LRCS (L858R/C797S); read-out: IC50, EGFR-LRCS, 1 mM, ATP 1 mM, EGFR L858R/C797S) [nM] | IC50 (EGFR LRCS (L858R/C797S); read-out: IC50, EGFR-LRCS, Km, ATP at Km, EGFR L858R/C797S) [nM]
Cc1nn(C)c2c1-c1nccc(n1)Nc1cc(c(-c3ncc(CN4CC(O)C(C)(C)C4)cc3F)cn1)N[C@@H](C)CCO2 (stereo partly shown) | < 10 | < 10 | 10 to 100 | < 10 | > 1000 | 10 to 100 | < 10 | < 10 | 100 to 1000 | < 10 |  |  |  |  |  |  |  |  | 
Cc1nn(C)c2c1-c1nccc(n1)Nc1cc(c(-c3ncc(CN4CC[C@@H](O)C4)cc3F)cn1)NCC[C@H](C)O2 |  |  |  |  |  |  |  |  |  |  | < 10 | < 10 | 10 to 100 | < 10 | > 1000 | 10 to 100 | < 10 | 10 to 100 | < 10
C[C@H]1CCNc2cc(ncc2-c2cnc(OC3COC3)cn2)Nc2ccnc(n2)-c2cnn(C)c2O1 | < 10 | < 10 | 10 to 100 | < 10 | > 1000 | < 10 | < 10 | < 10 | 10 to 100 | < 10 |  |  |  |  |  |  |  |  | 
Cc1nn(C)c2c1-c1nccc(n1)Nc1cc(c(-c3ccc(C(F)(F)F)cn3)cn1)NCC[C@H](C)O2 | 10 to 100 | < 10 | 100 to 1000 | 10 to 100 | > 1000 | > 1000 | < 10 | < 10 | 100 to 1000 | 10 to 100 |  |  |  |  |  |  |  |  | 
C[C@H]1CCOc2c(cnn2C)-c2nccc(n2)Nc2cc(c(-c3cc(N4CC(CC(F)(F)F)C4)ccn3)cn2)N1 | 100 to 1000 | < 10 | > 1000 | 100 to 1000 | > 1000 | 100 to 1000 | 10 to 100 | < 10 | > 1000 | 100 to 1000 |  |  |  |  |  |  |  |  | 
Cc1nn(C)c2c1-c1nccc(n1)Nc1cc(c(-c3ncc(CN4CC(CC(C)(F)F)C4)cc3F)cn1)N[C@@H](C)CCO2 | < 10 | < 10 | < 10 | < 10 | > 1000 | 10 to 100 | < 10 | < 10 | 10 to 100 | < 10 |  |  |  |  |  |  |  |  | 
Cn1ncc2c1OCC(C)(C)CNc1cc(ncc1-c1ccn(C(F)F)n1)Nc1ccnc-2n1 | < 10 | < 10 | 10 to 100 | < 10 | > 1000 | 10 to 100 | < 10 | < 10 | 10 to 100 | < 10 |  |  |  |  |  |  |  |  | 
C[C@H]1CCOc2c(cnn2C)-c2nccc(n2)Nc2cc(c(-c3ncccc3OC(F)F)cn2)N1 | 10 to 100 | < 10 | > 1000 | 100 to 1000 | > 1000 | 100 to 1000 | 10 to 100 | 10 to 100 | > 1000 | 100 to 1000 |  |  |  |  |  |  |  |  | 
C[C@H]1CCOc2c(cnn2C)-c2nccc(n2)Nc2cc(c(-c3ccn(CC(F)(F)F)n3)cn2)N1 | < 10 | < 10 | 100 to 1000 | 10 to 100 | > 1000 | 100 to 1000 | < 10 | < 10 | > 1000 | < 10 |  |  |  |  |  |  |  |  | 
Cc1nn(C)c2c1-c1nccc(n1)Nc1cc(c(-c3ccc(OC(F)F)cn3)cn1)NCC(C)(C)CO2 | < 10 | < 10 | 10 to 100 | < 10 | > 1000 | 10 to 100 | < 10 | < 10 | 100 to 1000 | < 10 |  |  |  |  |  |  |  |  | 
Cn1ncc2c1OCC(C)(C)CNc1cc(ncc1-c1nccc(CO)c1F)Nc1ccnc-2n1 | 10 to 100 | < 10 | 100 to 1000 | 100 to 1000 | > 1000 | 10 to 100 | 10 to 100 | < 10 | > 1000 | 10 to 100 |  |  |  |  |  |  |  |  | 

Like-named read-outs stand apart in the source and are kept apart here.
